Laboratory results published in ChEMBL document CHEMBL4152384, “Pyrtriazoles, a Novel Class of Store-Operated Calcium Entry Modulators: Discovery, Biological Profiling, and in Vivo Proof-of-Concept Efficacy in Acute Pancreatitis” (J Med Chem, 2018).

Chains of the proteins cited; added tags and fusions are not shown. Lines headed by an entry give the natural chain unless they say otherwise; changes in a name come on top.
UniProt Q13586, whole entry: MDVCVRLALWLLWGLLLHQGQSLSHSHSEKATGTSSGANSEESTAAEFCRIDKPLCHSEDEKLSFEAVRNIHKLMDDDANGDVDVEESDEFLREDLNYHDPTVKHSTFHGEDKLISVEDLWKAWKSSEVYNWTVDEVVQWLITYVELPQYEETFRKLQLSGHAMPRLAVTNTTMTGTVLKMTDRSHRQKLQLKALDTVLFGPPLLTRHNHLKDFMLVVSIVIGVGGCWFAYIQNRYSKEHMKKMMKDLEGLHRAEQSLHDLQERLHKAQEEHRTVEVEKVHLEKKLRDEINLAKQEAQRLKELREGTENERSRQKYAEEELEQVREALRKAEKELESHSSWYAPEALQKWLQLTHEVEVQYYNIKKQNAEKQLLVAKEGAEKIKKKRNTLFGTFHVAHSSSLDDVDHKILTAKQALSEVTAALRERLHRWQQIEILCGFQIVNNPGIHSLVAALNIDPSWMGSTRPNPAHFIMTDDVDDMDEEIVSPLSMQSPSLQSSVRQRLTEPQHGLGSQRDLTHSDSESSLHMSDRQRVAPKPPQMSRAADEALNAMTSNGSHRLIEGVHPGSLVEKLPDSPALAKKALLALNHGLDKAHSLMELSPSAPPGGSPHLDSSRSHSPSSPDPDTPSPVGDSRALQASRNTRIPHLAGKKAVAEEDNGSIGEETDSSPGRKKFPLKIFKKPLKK
UniProt Q96D31, whole entry: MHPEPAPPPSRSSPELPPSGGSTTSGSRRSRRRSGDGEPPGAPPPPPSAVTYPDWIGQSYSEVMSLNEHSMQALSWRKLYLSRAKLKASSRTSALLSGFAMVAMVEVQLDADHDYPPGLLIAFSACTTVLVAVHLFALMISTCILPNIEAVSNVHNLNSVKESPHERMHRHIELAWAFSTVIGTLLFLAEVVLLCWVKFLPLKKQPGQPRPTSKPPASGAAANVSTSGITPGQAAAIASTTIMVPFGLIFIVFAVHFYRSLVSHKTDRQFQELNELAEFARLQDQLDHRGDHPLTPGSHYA
UniProt Q9P246, whole entry: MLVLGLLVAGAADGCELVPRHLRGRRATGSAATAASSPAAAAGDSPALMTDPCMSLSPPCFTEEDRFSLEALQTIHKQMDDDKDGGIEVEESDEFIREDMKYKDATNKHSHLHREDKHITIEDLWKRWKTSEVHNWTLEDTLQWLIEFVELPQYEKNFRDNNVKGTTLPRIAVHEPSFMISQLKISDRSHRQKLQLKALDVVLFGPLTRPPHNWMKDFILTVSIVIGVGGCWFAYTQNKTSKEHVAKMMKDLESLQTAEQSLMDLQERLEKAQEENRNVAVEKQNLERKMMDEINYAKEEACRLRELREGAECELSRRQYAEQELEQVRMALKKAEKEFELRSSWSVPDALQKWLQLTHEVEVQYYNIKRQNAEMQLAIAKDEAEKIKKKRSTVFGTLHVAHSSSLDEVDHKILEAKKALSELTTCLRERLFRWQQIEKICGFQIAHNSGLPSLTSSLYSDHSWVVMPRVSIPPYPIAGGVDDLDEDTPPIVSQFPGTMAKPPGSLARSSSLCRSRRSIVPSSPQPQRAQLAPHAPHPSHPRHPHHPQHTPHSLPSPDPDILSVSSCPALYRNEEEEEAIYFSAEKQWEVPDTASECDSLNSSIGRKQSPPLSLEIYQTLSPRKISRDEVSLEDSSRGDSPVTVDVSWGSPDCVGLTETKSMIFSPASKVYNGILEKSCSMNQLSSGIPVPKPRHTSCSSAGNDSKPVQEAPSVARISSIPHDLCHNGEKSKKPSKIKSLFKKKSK
UniProt P48995: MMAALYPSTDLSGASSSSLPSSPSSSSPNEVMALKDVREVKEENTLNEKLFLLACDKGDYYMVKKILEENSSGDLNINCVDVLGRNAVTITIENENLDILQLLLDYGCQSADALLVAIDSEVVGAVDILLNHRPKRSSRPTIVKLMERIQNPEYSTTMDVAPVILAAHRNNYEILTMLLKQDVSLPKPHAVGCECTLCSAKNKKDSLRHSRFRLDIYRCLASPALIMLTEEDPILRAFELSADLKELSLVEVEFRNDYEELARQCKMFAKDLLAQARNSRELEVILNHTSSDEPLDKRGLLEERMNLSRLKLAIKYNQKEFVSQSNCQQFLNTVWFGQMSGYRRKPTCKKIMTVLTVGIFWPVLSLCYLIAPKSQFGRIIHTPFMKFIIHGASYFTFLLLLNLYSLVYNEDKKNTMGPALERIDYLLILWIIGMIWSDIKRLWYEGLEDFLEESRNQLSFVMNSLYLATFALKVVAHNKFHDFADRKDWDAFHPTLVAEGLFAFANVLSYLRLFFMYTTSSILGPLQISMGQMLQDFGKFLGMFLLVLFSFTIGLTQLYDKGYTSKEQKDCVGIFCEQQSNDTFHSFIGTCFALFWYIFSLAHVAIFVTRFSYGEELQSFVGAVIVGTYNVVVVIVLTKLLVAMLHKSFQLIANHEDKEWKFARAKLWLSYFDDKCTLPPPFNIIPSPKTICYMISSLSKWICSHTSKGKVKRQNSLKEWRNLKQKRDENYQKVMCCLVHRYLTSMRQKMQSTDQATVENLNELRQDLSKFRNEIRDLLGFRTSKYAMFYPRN
UniProt Q13507: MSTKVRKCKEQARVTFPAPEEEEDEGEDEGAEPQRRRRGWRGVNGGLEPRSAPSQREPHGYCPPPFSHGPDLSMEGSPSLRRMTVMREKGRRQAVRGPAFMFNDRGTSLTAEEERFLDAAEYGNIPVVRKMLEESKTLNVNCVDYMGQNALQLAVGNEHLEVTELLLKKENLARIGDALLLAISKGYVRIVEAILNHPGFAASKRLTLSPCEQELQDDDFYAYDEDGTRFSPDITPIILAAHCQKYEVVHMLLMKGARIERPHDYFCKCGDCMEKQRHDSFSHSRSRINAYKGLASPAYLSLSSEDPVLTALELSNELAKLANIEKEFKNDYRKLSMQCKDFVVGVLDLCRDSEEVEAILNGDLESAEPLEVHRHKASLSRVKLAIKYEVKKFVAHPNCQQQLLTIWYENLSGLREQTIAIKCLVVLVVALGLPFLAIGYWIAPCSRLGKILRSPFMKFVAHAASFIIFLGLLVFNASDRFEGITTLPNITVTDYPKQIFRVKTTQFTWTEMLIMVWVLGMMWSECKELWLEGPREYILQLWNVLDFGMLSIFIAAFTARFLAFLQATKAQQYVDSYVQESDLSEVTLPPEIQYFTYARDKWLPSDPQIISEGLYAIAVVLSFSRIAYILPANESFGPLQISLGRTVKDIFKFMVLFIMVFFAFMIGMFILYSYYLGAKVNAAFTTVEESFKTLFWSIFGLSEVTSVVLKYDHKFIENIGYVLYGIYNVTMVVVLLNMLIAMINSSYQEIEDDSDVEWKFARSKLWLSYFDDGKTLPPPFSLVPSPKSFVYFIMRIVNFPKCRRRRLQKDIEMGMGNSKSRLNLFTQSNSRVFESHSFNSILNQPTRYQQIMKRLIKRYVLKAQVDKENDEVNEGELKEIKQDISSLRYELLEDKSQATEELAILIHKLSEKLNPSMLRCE

What was measured:
[1] = molecular target: Stromal interaction molecule 1 & 2/Calcium release-activated calcium channel protein 1 (Homo sapiens, UniProt Q13586+Q96D31+Q9P246); test: Inhibition of STIM1/STIM2/Orai1 (unknown origin) expressed in mouse BV2 cells assessed as reduction of store-operated calcium entry at 100 uM preincubated for 30 mins followed by tBhQ, mediated Ca2+ depletion and re-addition measured for 600 secs by Fluo-4 AM-based fluorometric assay; assay type: cell-based
[2] = molecular target: Short transient receptor potential channel 1 & 3/Stromal interaction molecule 1/Calcium release-activated calcium channel protein 1 (Homo sapiens, UniProt P48995+Q13507+Q13586+Q96D31); test: Modulation of TRPC1/TRPC3/STIM1/Orai1 in HEK cells assessed as induction of store-operated calcium entry by measuring residual activity preincubated for 30 mins followed by tBhQ-mediated Ca2+ depletion and Ca2+ re-addition to extracellular solution measured for 600 secs by Fluo-4 AM-based fluorometric assay relative to control; assay type: cell-based

Compound: CCOC(=O)c1cnn(-c2ccc(NC(=O)C(Cl)=C(Cl)Cl)cc2)c1C(F)(F)F
- IC50 [1]: 2900 nM
- IC50 [2]: 500 nM
